According to patent US20100190846A1, “MICROBICIDAL AGENT AND MICROBICIDAL COMPOSITION” (priority 2006, published 2010):

Assay: Solubility in DMSO observed during sample preparation
Assay type: physicochemical
Method: First, 400 mg of sample was dissolved in 1 mL of DMSO to prepare 400 mg/mL sample solution. Then 0.5 mL of this 400 mg/mL sample solution was diluted 2-fold to prepare 200 mg/mL sample solution. In the same manner, sample solutions of 100 mg/mL, 50.0 mg/mL, and 25.0 mg/mL were prepared. In addition, 300 mg/mL sample solution was prepared. Thereafter, 0.2 mL of these sample solutions each was mixed with 19.8 mL of BHI (Brain Heart Infusion Agar, Becton Dickinson, MD) medium, thereby preparing agar plates having the sample concentration of 4.0 mg/mL, 3.0 mg/mL, 2.0 mg/mL, 1.0 mg/mL, 0.5 mg/mL, and 0.25 mg/mL in dishes. As a control for comparison of microbicidal activity of samples, agar plates containing catechin having the above-described concentrations were prepared. Sterilized water was used for dissolving catechin, because catechin was insoluble in DMSO.
First, 4 mg of 5,7,4′-trihydroxy-3′,5′-dimethoxyflavone sample was dissolved in 200 μL to prepare 20 mg/mL sample solution. To 100 μL of this 20 mg/mL sample solution, 100 μL of sterilized water was added to prepare 200 μL of 10 mg/mL sample solution. To the solution, 60 μL DMSO and 140 μL of sterilized water were added to prepare 400 μL of 5.0 mg/mL sample solution. DMSO was used in the concentration of 40%, because the sample precipitated from 30% DMSO. […]

## catechin [reference compound]
  solubility in DMSO: insoluble
